In patent US9211249B2, “Methods and compositions for transdermal delivery of caffeine in the form of solutions or suspensions” (priority 2013, dated 2015):

Experiment: Solubility of caffeine in caffeine-containing compositions containing various helper esters
Conditions: 10% helper ester in water at 20° C.

With “2-(Dipentylamino)methyl 2-(4-isobutylphenyl)propionate hydrochloride” the “Solubility of caffeine (w/v)” value was greater than 3%.
